Measured values: the NIST ThermoML archive (doi:10.1016/j.jct.2004.05.009)

Conditions: 182.33 K; Liquid

vapor or sublimation pressure: 1.67 ± 0.11 kPa
Structure (SMILES): CCl [chloromethane]

± gives the expanded uncertainty stated by the source.
